Test results published in ChEMBL document CHEMBL5046286, “Discovery of MAP855, an Efficacious and Selective MEK1/2 Inhibitor with an ATP-Competitive Mode of Action” (J Med Chem, 2022).

Amino acid sequences for entries named in this document (tags omitted).
UniProt Q02750, whole entry: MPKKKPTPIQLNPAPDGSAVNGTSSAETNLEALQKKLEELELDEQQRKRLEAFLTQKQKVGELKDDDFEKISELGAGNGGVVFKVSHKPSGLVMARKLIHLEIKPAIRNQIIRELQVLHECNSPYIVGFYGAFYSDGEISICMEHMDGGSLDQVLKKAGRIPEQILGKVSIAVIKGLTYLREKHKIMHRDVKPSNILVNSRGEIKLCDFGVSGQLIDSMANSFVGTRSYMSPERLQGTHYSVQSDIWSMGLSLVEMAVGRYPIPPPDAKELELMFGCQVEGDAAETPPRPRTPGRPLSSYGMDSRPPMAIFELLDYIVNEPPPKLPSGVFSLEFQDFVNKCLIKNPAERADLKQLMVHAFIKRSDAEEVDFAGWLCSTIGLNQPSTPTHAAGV

Molecular target: Dual specificity mitogen-activated protein kinase kinase 1 (Homo sapiens, UniProt Q02750)
Experiment: Inhibition of full-length human MEK1 by TR-FRET assay

SMILES: N#CCc1ccc(-n2cnc3cnc4cc(F)c(-c5ccc(Oc6ccccn6)cc5Cl)cc4c32)cc1
- IC50: 100 nM
